# In patent US20240173419A1, “CDK2 DEGRADERS AND USES THEREOF” (Kymera Therapeutics, Inc., priority 2022, published 2024):
# Target: CDK2 (Homo sapiens, UniProt P24941)
# Assay: CDK2 degradation in MKN1 cells (AlphaLISA)
# Settings: for CDK2 degradation 14 h: Average Dmax %: 14 h incubation; for DC50: read-out: CDK2 degradation 14 h: Mean external-Abs DC50, 14 h incubation
# Experimental: Degradation of CDK2 in MKN1 cells was measured using AlphaLISA technology (PerkinElmer ALSU-TCDK2-A10K). MKN1 cells were maintained in RPMI1640 medium containing 10% FBS+1× penn/strep. Cells were seeded in 96-well plates (Corning 3599) at a density of 2e4 cells per well in 80 μL of fresh complete growth medium. Cells were incubated overnight at 37° C., 5% CO2. Compounds were then added to the cell assay plates with a final top concentration of 10 μM in a 1:5 dilution series with a total of 11 doses (0.001 nM-10 μM). The final volume per well was 160 μL and the final DMSO concentration was 0.1%. Additionally, wells containing no cells and only complete growth medium were also maintained on the cell assay plates (‘no cell’ wells) and processed along with experimental wells. After 14 hour-incubation at 37° C., 5% CO2, the medium was removed and the cells were washed once with 100 μL of 1×PBS. Following removal of PBS, 40 μL of 1× Lysis Buffer containing 1× protease and phosphatase inhibitors (Roche 4693116001; Roche 4906837001) were added to each well. The cell assay plate was agitated on a plate shaker at 350 rpm for 10 minutes at room temperature. 10 μL of each cell lysate were transferred to a 384-well plate (PerkinElmer 6007290). 10 μL of control lysates (from PerkinElmer ALSU-TCDK2-A10K kit) were added to separate wells to generate a standard curve. Activation Buffer was prepared by diluting 25-fold in combined Reaction Buffer 1 and Reaction Buffer 2. Acceptor Beads were diluted 50-fold in combined Reaction Buffers. 5 μL of Acceptor Mix were added to each well. The plate was sealed with Topseal-Aadhesive film, covered with foil, and incubated in the dark for 1 hour at room temperature. Under subdued light, the Donor Beads were diluted 50-fold in Dilution Buffer. 5 μL of Donor Mix were added to each well under subdued light. The plate was sealed with Topseal-A adhesive film, covered with foil, and incubated in the dark for 1 hour at room temperature. Under subdued light, the plates were analyzed on an EnVision Microplate Reader (PerkinElmer Model 2009-0030). The average signal from ‘no cell’ wells was subtracted from the signal in experimental wells prior to calculating Alpha signal for test compounds and negative control (0.100 DMSO). The data were analyzed using Xlfit (v5.3. 1.3) and the dose-dependent CDK2 degradation data were fit using a four-parameter logistic model to calculate DC50.
SMILES,CDK2 degradation 14 h: Average Dmax %,DC50
Cc1cc(S(=O)(=O)NCCOCCOCCNC(=O)c2ccc(Cl)c(N3CCC(=O)NC3=O)c2)ccc1Nc1ncc2cc(Cl)c(=O)n(C3CCCC3)c2n1,C (C (>25% -50%)),> 1000 nM
C[C@@]1(O)CCC[C@H]1n1c(=O)c(C(F)F)cc2cnc(NC3CCN(C(=O)CCCCCCCNc4cccc5c4C(=O)N(C4CCC(=O)NC4=O)C5=O)CC3)nc21 (stereo partly shown),D (D (<25%)),> 1000 nM
Cc1cc(S(=O)(=O)N[C@H]2CC[C@H](N3CCN(c4ccc(C5CCC(=O)NC5=O)c(Cl)c4)CC3)CC2)ccc1Nc1ncc(C(F)(F)F)c(N2CCC[C@](C)(O)C2)n1 (stereo partly shown),C (C (>25% -50%)),> 1000 nM
Cc1cc(S(=O)(=O)N[C@H]2CC[C@H](CN3CCN(c4cccc(N[C@H]5CCC(=O)NC5=O)c4F)CC3)CC2)ccc1Nc1ncc(C(F)(F)F)c(N2CCC[C@](C)(O)C2)n1,A (A (>75% o)),100 to 500 nM
Cc1cc(S(=O)(=O)N[C@H]2CC[C@H](OC3CN(c4ccc(C5CCC(=O)NC5=O)cc4F)C3)CC2)ccc1Nc1ncc(C(F)(F)F)c(N2CCC[C@](C)(O)C2)n1 (stereo partly shown),C (C (>25% -50%)),> 1000 nM
Cc1cc(S(=O)(=O)N2CCC3(CCN(c4cccc5c4n(C)c(=O)n5C4CCC(=O)NC4=O)CC3)CC2)ccc1Nc1ncc2ccc(=O)n(C3CCCC3)c2n1 (stereo not shown),D (D (<25%)),> 1000 nM
CC1(O)CCN(c2nc(Nc3ccc(S(=O)(=O)N[C@H]4CC[C@H](CN5CCN(c6ccc(C7CCC(=O)NC7=O)c(F)c6)CC5)CC4)cc3F)ncc2C(F)(F)F)CC1 (stereo partly shown),A (A (>75% o)),< 100 nM
Cc1cc(S(=O)(=O)C2CC3(CCN(CC4CCN(c5ccc6c(c5F)n(C)c(=O)n6C5CCC(=O)NC5=O)CC4)CC3)C2)ccc1Nc1ncc(C(F)(F)F)c(N2CCC[C@@](C)(O)C2)n1 (stereo partly shown),C (C (>25% -50%)),> 1000 nM
Cc1cc(S(=O)(=O)N[C@H]2CC[C@@H](OC3CCN(c4ccc(C5CCC(=O)NC5=O)cc4F)CC3)CC2)ccc1Nc1ncc(C(F)(F)F)c(N2CCC[C@](C)(O)C2)n1 (stereo partly shown),B (B (>50% -75%)),100 to 500 nM
Cc1cc(S(=O)(=O)C2CC3(CCN(CC4CCN(c5cccc6c5n(C)c(=O)n6C5CCC(=O)NC5=O)CC4)CC3)C2)ccc1Nc1ncc(C(F)(F)F)c(N2CCC[C@](C)(O)C2)n1 (stereo partly shown),A (A (>75% o)),< 100 nM
Cc1cc(S(=O)(=O)NC23CCC(CN4CCN(c5ccc(C6CCC(=O)NC6=O)cc5F)CC4)(CC2)C3)ccc1Nc1ncc(C(F)(F)F)c(N2CCC[C@](C)(O)C2)n1 (stereo partly shown),A (A (>75% o)),< 100 nM
Cc1cc(S(=O)(=O)N[C@H]2C[C@H](N3CCN(CCOc4ccc(NC5CCC(=O)NC5=O)c(Cl)c4)CC3)C2)ccc1Nc1ncc(C(F)(F)F)c(N2CCC[C@](C)(O)C2)n1 (stereo partly shown),C (C (>25% -50%)),> 1000 nM
Cc1cc(S(=O)(=O)N[C@H]2CC[C@H](CN3CCN(c4ccc(C5CCC(=O)NC5=O)cc4F)C[C@H]3C)CC2)ccc1Nc1ncc(C(F)(F)F)c(N2CCC[C@](C)(O)C2)n1 (stereo partly shown),A (A (>75% o)),< 100 nM
C[C@]1(O)CCCN(c2nc(Nc3ccc(S(=O)(=O)N[C@H]4CC[C@H](CN5CCN(c6ccc(C7CCC(=O)NC7=O)c(F)c6)CC5)CC4)cc3Cl)ncc2C(F)(F)F)C1 (stereo partly shown),A (A (>75% o)),< 100 nM
Cc1cc(S(=O)(=O)NCCCCCNC(=O)COc2ccc(C3CCC(=O)NC3=O)cc2)ccc1Nc1ncc2cc(Cl)c(=O)n(C3CCCC3)c2n1 (stereo not shown),A (A (>75% o)),100 to 500 nM
"CC1CC(NS(=O)(=O)c2ccc(Nc3ncc(C(F)(F)F)c(N4CCCC(C)(O)C4)n3)c(F)c2)CCN1CC1CCN(c2ccc(C3CCC(=O)NC3=O)c(F)c2)CC1 (single isomer, unassigned)",A (A (>75% o)),100 to 500 nM
Cc1cc(S(=O)(=O)N[C@H]2CC[C@H](CN3CCN(c4ccc(C5CCC(=O)NC5=O)c(F)c4)CC3)CC2)ccc1Nc1ncc(C(F)(F)F)c(N2CCC[C@](C)(O)C2)n1 (stereo partly shown),A (A (>75% o)),< 100 nM
Cc1cc(S(=O)(=O)NC2CCN(c3ccc(C4CCC(=O)NC4=O)c(Cl)c3)CC2)ccc1Nc1ncc(C(F)(F)F)c(N2CCC[C@](C)(O)C2)n1 (stereo partly shown),B (B (>50% -75%)),> 1000 nM
Cc1cc(S(=O)(=O)NCCCNC(=O)COc2ccc(C3CCC(=O)NC3=O)cc2)ccc1Nc1ncc2cc(Cl)c(=O)n(C3CCCC3)c2n1 (stereo not shown),B (B (>50% -75%)),> 1000 nM
Cc1cc(S(=O)(=O)NCCCCCNc2cccc3c2C(=O)N(C2CCC(=O)NC2=O)C3=O)ccc1Nc1ncc2cc(C(F)F)c(=O)n([C@@H]3CCC[C@@]3(C)O)c2n1 (stereo partly shown),C (C (>25% -50%)),> 1000 nM
Cc1cc(S(=O)(=O)NCCOCCNC(=O)COc2ccc(C3CCC(=O)NC3=O)cc2)ccc1Nc1ncc2cc(Cl)c(=O)n(C3CCCC3)c2n1 (stereo not shown),A (A (>75% o)),100 to 500 nM
Cc1cc(S(=O)(=O)N[C@H](C)CO[C@H]2CC[C@H](CN3CC(c4ccc5c(c4F)n(C)c(=O)n5C4CCC(=O)NC4=O)C3)CC2)ccc1Nc1ncc(C(F)(F)F)c(N2CCC[C@](C)(O)C2)n1 (stereo partly shown),A (A (>75% o)),< 100 nM
Cc1cc(S(=O)(=O)N[C@H](C)CO[C@H]2C[C@H](CN3CCN(c4cccc5c4n(C)c(=O)n5C4CCC(=O)NC4=O)CC3)C2)ccc1Nc1ncc(C(F)(F)F)c(N2CCC[C@](C)(O)C2)n1 (stereo partly shown),A (A (>75% o)),< 100 nM
Cc1cc(S(=O)(=O)N[C@H]2C[C@H](N3CCN(CC4CCN(c5c(F)ccc6c5n(C)c(=O)n6C5CCC(=O)NC5=O)CC4)CC3)C2)ccc1Nc1ncc(C(F)(F)F)c(N2CCC[C@](C)(O)C2)n1 (stereo partly shown),A (A (>75% o)),< 100 nM

# Further lines, results first:
CDK2 degradation 14 h: Average Dmax %,DC50,SMILES
A (A (>75% o)),< 100 nM,Cc1cc(S(=O)(=O)N[C@H](C)CO[C@H]2CC[C@H](CN3CC(c4cccc5c4n(C)c(=O)n5C4CCC(=O)NC4=O)C3)CC2)ccc1Nc1ncc(C(F)(F)F)c(N2CC[C@H](C(C)(C)O)C2)n1 (stereo partly shown)
A (A (>75% o)),< 100 nM,Cc1cc(S(=O)(=O)C2CC3(CCN(CC4CCN(c5cccc6c5oc(=O)n6C5CCC(=O)NC5=O)CC4)CC3)C2)ccc1Nc1ncc2cc(Cl)c(=O)n(C3CCCC3)c2n1 (stereo not shown)
A (A (>75% o)),< 100 nM,Cc1cc(S(=O)(=O)CCCCN2CCN(CC3CCN(c4ccc5c(c4)n(C)c(=O)n5C4CCC(=O)NC4=O)CC3)CC2)ccc1Nc1ncc2cc(Cl)c(=O)n(C3CCCC3)c2n1 (stereo not shown)
A (A (>75% o)),< 100 nM,Cc1cc(S(=O)(=O)C2CCN(CCC3CCN(c4cccc5c4n(C)c(=O)n5C4CCC(=O)NC4=O)CC3)CC2)ccc1Nc1ncc2c(n1)N(C1CCCC1)C(=O)C21CC1 (stereo not shown)
A (A (>75% o)),< 100 nM,Cc1cc(S(=O)(=O)N[C@H]2CCN(CC3CCN(c4ccc(C5CCC(=O)NC5=O)c(F)c4)CC3)C[C@H]2F)ccc1Nc1ncc(C(F)(F)F)c(N2CCC[C@](C)(O)C2)n1 (stereo partly shown)
A (A (>75% o)),< 100 nM,C[C@]1(O)CCCN(c2nc(Nc3ccc(S(=O)(=O)N[C@@H]4CCN(CC5CCN(c6ccc(C7CCC(=O)NC7=O)c(F)c6)CC5)C[C@@H]4F)cc3F)ncc2C(F)(F)F)C1 (stereo partly shown)
A (A (>75% o)),< 100 nM,Cc1cc(S(=O)(=O)N[C@@H]2CCN(CC3CCN(c4ccc(C5CCC(=O)NC5=O)c(F)c4)CC3)C[C@H]2F)ccc1Nc1ncc(C(F)(F)F)c(N2CCC[C@](C)(O)C2)n1 (stereo partly shown)
A (A (>75% o)),< 100 nM,Cc1cc(S(=O)(=O)NC23CCCC(CN4CCN(c5ccc(C6CCC(=O)NC6=O)cc5F)CC4)(C2)C3)ccc1Nc1ncc(C(F)(F)F)c(N2CCC[C@](C)(O)C2)n1 (stereo partly shown)
A (A (>75% o)),< 100 nM,Cc1cc(S(=O)(=O)NC2CCN(CC3CCN(c4ccc(C5CCC(=O)NC5=O)c(Cl)c4)CC3)CC2)ccc1Nc1ncc(C(F)(F)F)c(N2CCC[C@](C)(O)C2)n1 (stereo partly shown)
A (A (>75% o)),< 100 nM,Cc1cc(S(=O)(=O)N[C@H]2CC[C@H](CN3CCN(c4cccc(N[C@@H]5CCC(=O)NC5=O)c4)CC3)CC2)ccc1Nc1ncc(C(F)(F)F)c(N2CCC[C@](C)(O)C2)n1
A (A (>75% o)),< 100 nM,Cc1cc(S(=O)(=O)N[C@H]2C[C@H](N3CCN(CCC#Cc4ccc(Cl)c(C5CCC(=O)NC5=O)c4)CC3)C2)ccc1Nc1ncc(C(F)(F)F)c(N2CCC[C@](C)(O)C2)n1 (stereo partly shown)
